Experiments:
U118MG = assay: cells; conditions: Homo sapiens, U-118-MG, read-out: IC50 ARN22089
[1] = In vitro microsomal stability assay; assay type: in vitro ADME; conditions: pH 7.4; rat liver microsomes; read-out: half-life after incubation with rat microsomes
Method: 10 mM DMSO stock solution of each compound was pre-incubated at 37°C for 15 min with liver microsomes from all the three species (mouse, rat, human) in 0.1M Tris-HCl buffer (pH 7.4). The final concentration was 4.6 μM. After pre-incubation, the co-factors (NADPH, G6P, G6PDH and MgCl2 pre-dissolved in 0.1M Tris-HCl) were added to the mixture and the incubation was continued at 37°C for 1 h. […] The supernatant was then further diluted with H2O (1:1) for analysis. […] The percentage of test compound remaining at each time point relative to the amount observed at t = 0 was calculated. The half-lives (t½) were determined by a one-phase decay equation using a non-linear regression of compound concentration versus time.

## CN(C)c1cccc(Nc2cc(-c3ccccc3)nc(C3CCNCC3)n2)c1 [ARN22089, N1,N1-dimethyl-N3-(6-phenyl-2-(piperidin-4-yl)pyrimidin-4-yl)benzene-1,3-diamine]
U118MG
  IC50: 8.8 µM
[1]
  half-life at […]: 1.78 h
